According to patent publication US20060079453A1:

Columns and labels:
Experiment in all cases: competition, purified HLA
HLA-A*2902 (human) = target: HLA-A*2902 (human)
HLA-A*3002 (human) = target: HLA-A*3002 (human)
HLA-A*0101 (human) = target: HLA-A*0101 (human)

B1: … (peptide)
peptide: RQDILDLWVY
modifications: not checked
IC50 (HLA-A*2902 (human)): 13.9 µM

B2: … (peptide)
peptide: YTAGPGPGY
modifications: not checked
IC50 (HLA-A*3002 (human)): 0.755 µM

B3: … (peptide)
peptide: LSVHSIQNDY
modifications: not checked
IC50 (HLA-A*0101 (human)): 0.279 µM

B4: … (peptide)
peptide: EVGPGPGLY
modifications: not checked
IC50 (HLA-A*2902 (human)): 18.2 µM

B5: … (peptide)
peptide: EYRHYCYSLY
modifications: not checked
IC50 (HLA-A*2902 (human)): 0.198 µM

B6: … (peptide)
peptide: ELSSALEIPY
modifications: not checked
IC50 (HLA-A*3002 (human)): 4.47 µM

B7: … (peptide)
peptide: RFHNIRGRW
modifications: not checked
IC50 (HLA-A*0101 (human); remark: other sources report otherwise): 52.9 µM

Read-outs that look alike come from different tables or passages of the source.
